Test results published in patent US20110092476A1, “Bicycloheteroaryl compounds as P2X7 modulators and uses thereof” (Renovis, Inc., priority 2006, published 2011).

By UniProt entry, the sequences of proteins in these tests, tags left out. Where a name states a change or a piece, a line headed by the entry shows the natural chain unless it says otherwise.
UniProt Q99572: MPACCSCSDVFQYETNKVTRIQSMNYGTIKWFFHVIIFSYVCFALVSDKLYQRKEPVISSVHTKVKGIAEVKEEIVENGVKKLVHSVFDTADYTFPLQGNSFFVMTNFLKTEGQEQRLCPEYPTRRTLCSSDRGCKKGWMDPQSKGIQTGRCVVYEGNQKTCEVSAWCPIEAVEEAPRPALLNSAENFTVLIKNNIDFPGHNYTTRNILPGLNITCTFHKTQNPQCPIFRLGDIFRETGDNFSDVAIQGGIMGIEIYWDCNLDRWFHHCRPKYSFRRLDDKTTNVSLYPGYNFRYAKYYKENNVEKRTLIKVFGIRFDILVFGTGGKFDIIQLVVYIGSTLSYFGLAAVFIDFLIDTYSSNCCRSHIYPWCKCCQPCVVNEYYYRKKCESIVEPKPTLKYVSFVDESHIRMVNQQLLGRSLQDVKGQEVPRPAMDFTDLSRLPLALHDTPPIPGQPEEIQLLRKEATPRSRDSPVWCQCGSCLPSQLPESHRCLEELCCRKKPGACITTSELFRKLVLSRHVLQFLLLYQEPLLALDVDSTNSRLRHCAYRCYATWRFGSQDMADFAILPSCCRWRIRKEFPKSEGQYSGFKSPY

Molecular target: T1, P2X7 receptor (Homo sapiens, UniProt Q99572)
T1 construct: host or cells: THP-1 cells differentiated with LPS and IFN-γ
Assay: IL-1β release assay in differentiated THP-1 cells stimulated with BzATP (Example 9)
Format: cell-based
Conditions: THP-1, read-out: IL-1β % Inhib. @ 0.3 or 0.1 uM
Method: THP-1 cells (ATCC Cat #285-IF-100) are plated in 96 well plates at a concentration of 200,000 cells per well and allowed to differentiate in RPMI-1640 media (ATCC Cat #30-2001) containing 10% FBS, 100 IU/mL penicillin, 100 ug/mL streptomycin, 100 ng/mL LPS and 100 ng/mL IFN-γ for 16 hours. Following differentiation, the cells are treated for an additional 2 hours in RPMI-1640 media containing 100 IU/mL penicillin, 100 ug/mL streptomycin and fresh LPS at 100 ng/mL. The cells are then pretreated for 30 minutes with the compound of interest at the appropriate concentration in RPMI media containing 100 IU/mL penicillin, 100 ug/mL streptomycin. […] 30 uL of cell supernatant is then collected and IL-1β levels determined via ELISA (R&D systems Cat. #HSLB50) according to manufacturer's recommendations using the Tecan Safire plate reader. […]
The following compounds have been or can be prepared according to the synthetic methods described herein for example, method A-AK. For the purpose of Table 1 below, activity of each compound, which can be determined using the IL-1β assay method described in Example 9, is expressed as follows: […]
The compounds set forth in Table 1 were tested for activity in a cellular model as described herein. Specifically, cells were pretreated with differing amounts of the compound under test and released IL-1β determined as in Example 9, above. […]

Work on `O=C(Cc1ccc(Cl)c(C(F)(F)F)c1)Nc1cccc2c(=O)n(CCO)ccc12` [Compound 65, 2-(4-Chloro-3-trifluoromethyl-phenyl)-N-[2-(2-hydroxy-ethyl)-1-oxo-1,2-dihydro-isoquinolin-5-yl]-acetamide] yielded an inhibition at 0.3 µM greater than 76%.
